# Data taken from the supplement of paper PMC12340641.
# Amino acid sequences for entries named in this document (tags omitted). A change or cut given only in a name is not applied to a line headed by its entry.
# UniProt Q13422: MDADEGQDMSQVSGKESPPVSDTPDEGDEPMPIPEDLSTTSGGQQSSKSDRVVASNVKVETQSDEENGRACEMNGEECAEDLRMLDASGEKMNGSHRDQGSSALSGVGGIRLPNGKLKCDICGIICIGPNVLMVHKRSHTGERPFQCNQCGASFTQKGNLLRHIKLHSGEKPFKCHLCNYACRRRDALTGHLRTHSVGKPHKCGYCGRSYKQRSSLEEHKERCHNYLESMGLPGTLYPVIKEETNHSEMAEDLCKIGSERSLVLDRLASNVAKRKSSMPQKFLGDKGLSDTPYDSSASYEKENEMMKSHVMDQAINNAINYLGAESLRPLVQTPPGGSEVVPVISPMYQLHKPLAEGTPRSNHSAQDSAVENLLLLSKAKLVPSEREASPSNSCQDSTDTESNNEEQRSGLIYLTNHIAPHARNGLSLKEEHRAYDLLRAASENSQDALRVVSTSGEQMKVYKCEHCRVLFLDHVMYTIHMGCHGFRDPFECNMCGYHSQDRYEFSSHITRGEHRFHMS
# For part of these data: What follows is the remainder of the data, with few or none of the strong results. The entries are a selection whose mix differs from that of the whole data set.
# What was measured:
# [1] = target: IKZF1 (dCK*-IKZF1 fusion in HEK293FT) (UniProt Q13422); assay: inhibition of IKZF1 HTRF signal (DMSO = 0%, pomalidomide 10 uM = 100%); higher = lower IKZF1 protein level; details: compound concentration: 5 uM, overnight (~20 h)
# Procedure, shortened: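 Compound was tested at 5 μM in single wells on HEK293FT cells (2000/well, 384-well) stably carrying an IKZF1 fusion, overnight at 37 °C. Total IKZF1 was measured in lysates with a commercial HTRF antibody kit as the background-subtracted 665/620 nm time-resolved FRET ratio. The reported figure is percent inhibition of IKZF1 signal, scaled per plate between vehicle and a reference degrader. The vehicle anchor was 0% and the degrader anchor 100%.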
# HEK293FT dCK*-only = assay: relative growth in counter assay (no AraC = 100%, AraC + DMSO = 0%); higher = more growth rescue independent of IKZF1; details: compound concentration: 5 uM; AraC concentration: 0.3 uM; overnight pretreatment + 4 days AraC
# Procedure, shortened: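 For this counter assay, relative growth was normalised on each plate to two kinds of reference wells. HEK293FT cells expressing only an engineered kinase construct (300/well, 384-well) were treated with 5 μM compound 2 h after seeding, then after overnight at 37 °C with a nucleoside suicide substrate at 0.3 μM plus medium for 4 days. On day 5, Hoechst 33342-stained nuclei were counted by imaging, taking wells without suicide substrate as 100% and substrate plus vehicle as 0%.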
# HEK293FT dCK*-IKZF1 = assay: relative growth recovery (pomalidomide 10 uM = 100%, DMSO = 0%); higher = more growth rescue (IKZF1 fusion degradation); details: compound concentration: 5 uM; AraC concentration: 0.3 uM; overnight pretreatment + 4 days AraC
# Procedure, shortened: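 On day 5, whole-well imaging was used to count Hoechst 33342-stained nuclei of HEK293FT cells stably carrying a deoxycytidine kinase–IKZF1 fusion. These cells had received 5 μM compound 2 h after seeding, followed after overnight at 37 °C by a nucleoside suicide substrate at 0.3 μM plus medium for 4 days. Growth recovery was normalised on each plate against a reference degrader and vehicle, which defined 100% and 0%, and values are duplicate means from separate days.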
structure (smiles),measurement,setting,value
COc1cc(Br)c(C[N+]2(CCOCCC3CC[C@H]4C[C@@H]3C4(C)C)CCOCC2)cc1OC (stereo partly drawn) [pinaverium],inhibition of IKZF1 HTRF signal,[1],-28.2%
same,relative growth in counter assay,HEK293FT dCK*-only,5.92%
same,relative growth recovery,HEK293FT dCK*-IKZF1,5.54%
